{"source": "paper PMC13441969", "about": "“Zero-shot design of drug-binding proteins via neural iterative selection−expansion” (Nature, 2026)", "assay": "Fluorescence polarization/anisotropy of exatecan titrated with protein", "details": "[exatecan] = 50 nM; PBS pH 7.4, 0.1% w/v PEG-8000; single-site (1:1) binding model"}
{"substance": "human serum albumin [HSA]", "values": [{"measurement": "Kd", "result": "43 ± 3", "unit": "µM"}]}
